Consider one molecule from PubChem BioAssay AID504796 (The Scripps Research Institute Molecular Screening Center, 2011).

The nature of this assay: fluorescence polarization artefacts, biochemical, artefact control for PKA-R2B activator project (AID 504796).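 Further: Cy5 labelled IP20 peptide probe with compound but no PKA protein.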 The settings on record: FP artifact counterscreen, at 11.4 µM, hits give high values. Background: In fluorescence polarisation assays a small probe gives low polarisation when free and higher when bound to something large.

The list shows a part of the results, in another mix than the full data. The source made the active and inactive calls. No stated cut-off is given here; in the data, active means activation above about 20%; inactive means the rest.

As to `c1nnnn1CCn1cnnn1`, the activation was inactive: 0.27%.
